{"source": "PubChem BioAssay AID588436", "about": "(Broad Institute, 2011)", "note": "The entries are a selection whose mix differs from that of the whole data set. Calls of active or inactive are those of the source. Cut-off read from the data, not from the text of the source: active = activation mostly above about 9.7% (no sharp cut-off); inconclusive = no clear call, values can overlap the other calls; inactive = mostly below about 3.7%."}
{"test": "inducers of Vibrio cholerae quorum light production without autoinducers, primary screen, BH1578 luxS cqsA deficient, single point (AID 588436)", "settings": "V. cholerae BH1578 lux reporter, luminescence, 6 h; at 18.7 µM; hits give high values"}
{"smiles": "CCC(=O)N(c1ccccc1)C1(COC)CCN(CCn2nnn(CC)c2=O)CC1", "activation": "inactive: -0.488%"}
{"smiles": "CCC(=O)N(c1ccccc1)C1(COC)CCN(CCc2cccs2)CC1", "activation": "inactive: -0.156%"}
